# CycPeptMPDB entries from one study

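The data file gives no further conditions (lipid, pH, time, direction or concentration), and values from different papers need not be comparable. The list need not hold all peptides of the study. Entries at the database's floor value (log10 P of -10) are not listed.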

PAMPA measures passive passage through an artificial lipid membrane.
Values are log10 P with P in cm/s, so -5 is more permeable than -7.

compound	PAMPA (log10 cm/s)
CC(=O)N1CCC[C@H]1C(=O)N(C)[C@@H](CC(C)C)C(=O)N[C@@H]1C(=O)N[C@@H](CC(C)C)C(=O)N(C)[C@H](CC(C)C)C(=O)N[C@H](CC(C)C)C(=O)N(C)[C@H](C)C(=O)N[C@H](CC(C)C)C(=O)N2CCC[C@@H]2C(=O)O[C@@H]1C	-6.43
CC(=O)N1CCC[C@H]1C(=O)N(C)[C@@H](CC(C)C)C(=O)N[C@@H]1C(=O)N(C)[C@@H](CC(C)C)C(=O)N(C)[C@H](CC(C)C)C(=O)N(C)[C@@H](CC(C)C)C(=O)N(C)[C@@H](C)C(=O)N[C@@H](CC(C)C)C(=O)N2CCC[C@@H]2C(=O)O[C@@H]1C	-5.49
CC(=O)N1CCC[C@@H]1C(=O)N(C)[C@H](CC(C)C)C(=O)N[C@@H]1C(=O)N(C)[C@H](CC(C)C)C(=O)N[C@@H](CC(C)C)C(=O)N(C)[C@@H](CC(C)C)C(=O)N(C)[C@@H](C)C(=O)N[C@@H](CC(C)C)C(=O)N2CCC[C@H]2C(=O)O[C@@H]1C	-5.51
CC(=O)N1CCC[C@H]1C(=O)N(C)[C@H](CC(C)C)C(=O)N[C@@H]1C(=O)N[C@@H](CC(C)C)C(=O)N(C)[C@@H](CC(C)C)C(=O)N(C)[C@@H](CC(C)C)C(=O)N[C@@H](C)C(=O)N[C@H](CC(C)C)C(=O)N2CCC[C@H]2C(=O)O[C@@H]1C	-5.94
CC(=O)N1CCC[C@H]1C(=O)N[C@@H]1C(=O)N[C@H](CC(C)C)C(=O)N[C@@H](CC(C)C)C(=O)N[C@@H](CC(C)C)C(=O)N(C)[C@@H](CC(C)C)C(=O)N(C)[C@H](C)C(=O)N[C@@H](CC(C)C)C(=O)N2CCC[C@@H]2C(=O)O[C@@H]1C	-5.82
CC(=O)N1CCC[C@H]1C(=O)N(C)[C@H](CC(C)C)C(=O)N[C@@H]1C(=O)N[C@H](CC(C)C)C(=O)N(C)[C@@H](CC(C)C)C(=O)N[C@@H](CC(C)C)C(=O)N[C@@H](C)C(=O)N[C@H](CC(C)C)C(=O)N2CCC[C@H]2C(=O)O[C@@H]1C	-5.71
CC(=O)N1CCC[C@H]1C(=O)N[C@@H]1C(=O)N(C)[C@H](CC(C)C)C(=O)N(C)[C@@H](CC(C)C)C(=O)N(C)[C@@H](CC(C)C)C(=O)N[C@@H](CC(C)C)C(=O)N(C)[C@@H](C)C(=O)N[C@@H](CC(C)C)C(=O)N2CCC[C@@H]2C(=O)O[C@@H]1C	-5.07
CC(=O)N1CCC[C@H]1C(=O)N[C@@H]1C(=O)N[C@H](CC(C)C)C(=O)N(C)[C@H](CC(C)C)C(=O)N(C)[C@@H](CC(C)C)C(=O)N(C)[C@@H](CC(C)C)C(=O)N(C)[C@@H](C)C(=O)N[C@@H](CC(C)C)C(=O)N2CCC[C@@H]2C(=O)O[C@@H]1C	-5.07
CC(=O)N1CCC[C@@H]1C(=O)N(C)[C@H](CC(C)C)C(=O)N[C@@H]1C(=O)N(C)[C@@H](CC(C)C)C(=O)N(C)[C@H](CC(C)C)C(=O)N(C)[C@H](CC(C)C)C(=O)N[C@@H](C)C(=O)N[C@H](CC(C)C)C(=O)N2CCC[C@H]2C(=O)O[C@@H]1C	-5.26
CC(=O)N1CCC[C@H]1C(=O)N(C)[C@@H](CC(C)C)C(=O)N[C@@H]1C(=O)N(C)[C@@H](CC(C)C)C(=O)N(C)[C@@H](CC(C)C)C(=O)N[C@@H](CC(C)C)C(=O)N(C)[C@H](C)C(=O)N[C@@H](CC(C)C)C(=O)N2CCC[C@H]2C(=O)O[C@@H]1C	-6.05
CC(=O)N1CCC[C@H]1C(=O)N(C)[C@H](CC(C)C)C(=O)N[C@@H]1C(=O)N(C)[C@H](CC(C)C)C(=O)N(C)[C@H](CC(C)C)C(=O)N[C@H](CC(C)C)C(=O)N[C@@H](C)C(=O)N[C@H](CC(C)C)C(=O)N2CCC[C@@H]2C(=O)O[C@@H]1C	-5.53
CC(=O)N1CCC[C@@H]1C(=O)N(C)[C@H](CC(C)C)C(=O)N[C@@H]1C(=O)N[C@H](CC(C)C)C(=O)N[C@H](CC(C)C)C(=O)N[C@@H](CC(C)C)C(=O)N[C@@H](C)C(=O)N[C@H](CC(C)C)C(=O)N2CCC[C@H]2C(=O)O[C@@H]1C	-6.66
CC(=O)N1CCC[C@H]1C(=O)N(C)[C@@H](CC(C)C)C(=O)N[C@@H]1C(=O)N[C@H](CC(C)C)C(=O)N[C@@H](CC(C)C)C(=O)N(C)[C@H](CC(C)C)C(=O)N[C@@H](C)C(=O)N[C@@H](CC(C)C)C(=O)N2CCC[C@@H]2C(=O)O[C@@H]1C	-5.21
CC(=O)N1CCC[C@H]1C(=O)N[C@@H]1C(=O)N(C)[C@H](CC(C)C)C(=O)N[C@@H](CC(C)C)C(=O)N[C@H](CC(C)C)C(=O)N[C@H](CC(C)C)C(=O)N(C)[C@H](C)C(=O)N[C@@H](CC(C)C)C(=O)N2CCC[C@@H]2C(=O)O[C@@H]1C	-6.03
CC(=O)N1CCC[C@@H]1C(=O)N(C)[C@H](CC(C)C)C(=O)N[C@@H]1C(=O)N[C@@H](CC(C)C)C(=O)N(C)[C@H](CC(C)C)C(=O)N(C)[C@@H](CC(C)C)C(=O)N(C)[C@@H](C)C(=O)N[C@H](CC(C)C)C(=O)N2CCC[C@H]2C(=O)O[C@@H]1C	-5.87
CC(=O)N1CCC[C@@H]1C(=O)N(C)[C@@H](CC(C)C)C(=O)N[C@@H]1C(=O)N[C@@H](CC(C)C)C(=O)N[C@@H](CC(C)C)C(=O)N[C@@H](CC(C)C)C(=O)N(C)[C@@H](C)C(=O)N[C@@H](CC(C)C)C(=O)N2CCC[C@@H]2C(=O)O[C@@H]1C	-6.43
CC(=O)N1CCC[C@H]1C(=O)N(C)[C@H](CC(C)C)C(=O)N[C@@H]1C(=O)N[C@H](CC(C)C)C(=O)N[C@@H](CC(C)C)C(=O)N(C)[C@@H](CC(C)C)C(=O)N[C@@H](C)C(=O)N[C@@H](CC(C)C)C(=O)N2CCC[C@@H]2C(=O)O[C@@H]1C	-5.21
CC(=O)N1CCC[C@@H]1C(=O)N(C)[C@H](CC(C)C)C(=O)N[C@@H]1C(=O)N[C@@H](CC(C)C)C(=O)N[C@H](CC(C)C)C(=O)N[C@H](CC(C)C)C(=O)N[C@H](C)C(=O)N[C@@H](CC(C)C)C(=O)N2CCC[C@@H]2C(=O)O[C@@H]1C	-7.33
CC(=O)N1CCC[C@H]1C(=O)N[C@@H]1C(=O)N[C@H](CC(C)C)C(=O)N[C@H](CC(C)C)C(=O)N[C@H](CC(C)C)C(=O)N[C@H](CC(C)C)C(=O)N(C)[C@@H](C)C(=O)N[C@@H](CC(C)C)C(=O)N2CCC[C@@H]2C(=O)O[C@@H]1C	-5.17
CC(=O)N1CCC[C@@H]1C(=O)N(C)[C@@H](CC(C)C)C(=O)N[C@@H]1C(=O)N[C@H](CC(C)C)C(=O)N[C@@H](CC(C)C)C(=O)N(C)[C@H](CC(C)C)C(=O)N[C@@H](C)C(=O)N[C@H](CC(C)C)C(=O)N2CCC[C@H]2C(=O)O[C@@H]1C	-5.76
CC(=O)N1CCC[C@@H]1C(=O)N(C)[C@H](CC(C)C)C(=O)N[C@@H]1C(=O)N(C)[C@@H](CC(C)C)C(=O)N(C)[C@@H](CC(C)C)C(=O)N[C@@H](CC(C)C)C(=O)N(C)[C@H](C)C(=O)N[C@@H](CC(C)C)C(=O)N2CCC[C@@H]2C(=O)O[C@@H]1C	-5.43

A selection of 2 entries from above:

compound	PAMPA (log10 cm/s)
CC(=O)N1CCC[C@@H]1C(=O)N(C)[C@@H](CC(C)C)C(=O)N[C@@H]1C(=O)N[C@@H](CC(C)C)C(=O)N[C@@H](CC(C)C)C(=O)N[C@@H](CC(C)C)C(=O)N(C)[C@@H](C)C(=O)N[C@@H](CC(C)C)C(=O)N2CCC[C@@H]2C(=O)O[C@@H]1C	-6.43
CC(=O)N1CCC[C@H]1C(=O)N(C)[C@@H](CC(C)C)C(=O)N[C@@H]1C(=O)N(C)[C@@H](CC(C)C)C(=O)N(C)[C@@H](CC(C)C)C(=O)N[C@@H](CC(C)C)C(=O)N(C)[C@H](C)C(=O)N[C@@H](CC(C)C)C(=O)N2CCC[C@H]2C(=O)O[C@@H]1C	-6.05

Collected by the curators of CycPeptMPDB (Li et al. 2023) from Kelly et al. 2021, doi:10.1021/jacs.0c06115.